Target: T1, O-acetylserine sulfhydrylase-A (CysK) from E. coli (E. coli, UniProt P0ABK5 1-323, bound pyridoxal 5'-phosphate (PLP) cofactor)
T1 sequence (looked up): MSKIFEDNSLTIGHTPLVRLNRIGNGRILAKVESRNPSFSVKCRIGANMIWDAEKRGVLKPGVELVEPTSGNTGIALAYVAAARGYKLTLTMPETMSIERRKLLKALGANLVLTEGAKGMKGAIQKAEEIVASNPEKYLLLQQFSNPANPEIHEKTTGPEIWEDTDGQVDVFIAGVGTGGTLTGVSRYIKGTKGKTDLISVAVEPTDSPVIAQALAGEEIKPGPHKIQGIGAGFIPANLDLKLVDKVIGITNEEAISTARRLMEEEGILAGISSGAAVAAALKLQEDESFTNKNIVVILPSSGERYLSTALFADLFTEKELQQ
Test: inhibition of enzyme activity

B1: serine acetyltransferase (CysE) from E. coli (enzyme, UniProt P0A9D4 1-273, looked up)
chain: MSCEELEIVWNNIKAEARTLADCEPMLASFYHATLLKHENLGSALSYMLANKLSSPIMPAIAIREVVEEAYAADPEMIASAACDIQAVRTRDPAVDKYSTPLLYLKGFHALQAYRIGHWLWNQGRRALAIFLQNQVSVTFQVDIHPAAKIGRGIMLDHATGIVVGETAVIENDVSILQSVTLGGTGKSGGDRHPKIREGVMIGAGAKILGNIEVGRGAKIGAGSVVLQPVPPHTTAAGVPARIVGKPDSDKPSMDMDQHFNGINHTFEYGDGI
Ki: 6.2 ± 0.7 nM
